Measured values published in PMC7865627, “Small Molecule-Based Prodrug Targeting Prostate Specific Membrane Antigen for the Treatment of Prostate Cancer” (Cancers, 2021).

Tested on: PSMA-positive PC3pip cells
Assay: In vitro cytotoxicity assay (CCK-8), PC3pip
Assay type: cell-based, human
Conditions: 50 μM E64
Method: Cells (1000/well) were seeded in 96-well culture plates the day before treatment.

Structure (SMILES)	reduction of cytotoxicity to PC3pip by E64
CC[C@H](C)[C@@H]([C@@H](CC(=O)N1CCC[C@H]1[C@H](OC)[C@@H](C)C(=O)N[C@H](C)[C@@H](O)c1ccccc1)OC)N(C)C(=O)[C@@H](NC(=O)[C@H](C(C)C)N(C)C(=O)OCc1ccc(NC(=O)[C@H](CCCNC(N)=O)NC(=O)[C@@H](NC(=O)CCCCCN2C(=O)CC(SC[C@H](NC(=O)[C@@H](CCC(=O)O)NC(=O)[C@@H](CCC(=O)O)NC(=O)[C@@H](CCC(=O)O)NC(=O)CCCCCNC(=O)[C@H]3CC[C@H](CNC(=O)CC[C@H](NC(=O)N[C@@H](CCC(=O)O)C(=O)O)C(=O)O)CC3)C(=O)NCCCCCC(=O)N[C@@H](CCCCNC(=O)CCCCC[N+]3=C(/C=C/C=C/C=C4/N(C)c5ccc6ccccc6c5C4(C)C)C(C)(C)c4c3ccc3ccccc43)C(N)=O)C2=O)C(C)C)cc1)C(C)C (some centres unmarked) [PSMA-1-VcMMAE-Cy5.5]	more than 4.3 fold
CC[C@H](C)[C@@H]([C@@H](CC(=O)N1CCC[C@H]1[C@H](OC)[C@@H](C)C(=O)N[C@H](C)[C@@H](O)c1ccccc1)OC)N(C)C(=O)[C@@H](NC(=O)[C@H](C(C)C)N(C)C(=O)CCCCCN1C(=O)CC(SC[C@H](NC(=O)[C@@H](CCC(=O)O)NC(=O)[C@@H](CCC(=O)O)NC(=O)[C@@H](CCC(=O)O)NC(=O)CCCCCNC(=O)[C@H]2CC[C@H](CNC(=O)CC[C@H](NC(=O)N[C@@H](CCC(=O)O)C(=O)O)C(=O)O)CC2)C(=O)NCCCCCC(=O)N[C@@H](CCCCNC(=O)CCCCC[N+]2=C(/C=C/C=C/C=C3/N(C)c4ccc5ccccc5c4C3(C)C)C(C)(C)c3c2ccc2ccccc32)C(N)=O)C1=O)C(C)C (some centres unmarked) [PSMA-1-McMMAE-Cy5.5]	no effect
